Measurements taken from patent US6436639B1, “Bak promoter expression system” (Tanox, Inc., priority 1997, dated 2002).

What was measured:
Assay type in all cases: cell-based, human
bak mRNA = assay: Northern blot analysis of bak mRNA expression in HT-29 cells; settings: 16 hours treatment, IFN-γ 200 units/ml, poly (I-C) 25 μg/ml, IFN-α 200 units/ml, IFN-β 500 units/ml
Description: To examine bak gene expression, Northern blot analyses were performed with HT-29 and Hela cells following IFN treatment. Bak mRNA expression following poly (I-C) treatment was also analyzed. […] (poly (I-C)) is a synthetic double-stranded RNA (dsRNA) that mimics viral infection. It is a potent inducer of interferon and activator of interferon-induced, dsRNA-dependent enzymes such as PKR and 2′,5′ oligoadenylate synthetase. These two enzymes are involved in maintaining the anti-viral state (see Jacobs and Langland (1996) Virology 219:339-349). […]

bak intron 1 ISRE = tested on: bak intron 1 ISRE
Description: (§1) To examine the transcription factors that specifically bind promoter and neighboring elements of the bak gene and presumably mediate INF-γ and poly (I-C) induction of bak mRNA synthesis, electrophoretic mobility shift and supershift assays were performed. […] These oligonucleotides were radioactively end-labelled with ^32P-ATP and T4 polynucleotide kinase, and allowed to interact with nuclear extracts prepared from HT-29 cells as described (Bomsztyk, K. et al. J. Biol. Chem. 265:9413 (1990)). The cells were pre-treated with INF-α, -β, or -γ, or poly (I-C) as described in Example 5. Binding reactions were carried out in a total volume of 20 μl, containing nuclear extract (10 μg total protein), labeled DNA (50,000 cpm), varying amounts of unlabeled competitor oligonucleotide and poly (I-C) (1 μg) in EMSA buffer (5 mM KCl, 10 mM Tris-HCl (pH 7.5), 1 mM dithiothreitol, 1 mM EDTA, 4% glycerol) for 10 minutes at room temperature. Gel supershift assays were performed as described above, except that antibodies specific for various promoter-binding proteins were added after the initial binding reaction and the mixture was incubated overnight at 4° C. The samples were then fractionated by electrophoresis on a 4% polyacrylamide gel at 10 mA at 4° C. in 0.3×TBE running buffer. The gel was then dried and exposed to x-ray film at -70° C. overnight.

bak promoter GAS = tested on: bak promoter GAS
Description: as §1

IFN-β: type I interferon was tested, and the “bak mRNA expression” value (bak mRNA) was “weakly increase”, the “IRF protein binding to Bak ISRE (complexes C1, C2, C3)” value (bak intron 1 ISRE) was “did not induce C1 and C3 formation” and the “specific protein binding to Bak GAS (complex C1)” value (bak promoter GAS) was “not observed”.
